Screening results: PubChem BioAssay, Broad Institute
E-selectin induc = E-selectin induction in HUVECs, primary screen, imaging, HUVEC, immunofluorescence imaging, single point. activation, % at 7.58 µM. AID 686992, 2013. 260,000 compounds, 0.37% hits. normalized: neutral wells 0, TNF-alpha wells 100;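 active = mean E-selectin-positive cell signal at least 10% of the positive control, reached in at least 60% of replicates, without over 20% cell loss; inconclusive = no rule given, readout overlaps actives, possibly toxicity-flagged; inactive = the rest, including those meeting only one limit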
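System: HUVEC / Compound: single concentration / Signal: immunofluorescence imaging / Read-out: percent E-selectin-positive cells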
Cneo AK release = Cryptococcus neoformans cell lysis inducers, primary screen, AK release luminescence, single concentration | C. neoformans lysis, adenylate kinase release luminescence, 4 h; normalised: neutral wells 0, clomiphene wells 100 | lysis activity, % at 15 µM | 360,000 compounds, 0.2% hits | AID 651654, 2012;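 active = mean lysis activity across replicates of at least 80%, whatever share of replicates individually reach that level; inactive = mean lysis activity below 80%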
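Test system: log-phase Cryptococcus neoformans yeast cells. Input: 5 × 10^6 yeast cells/mL. Medium: fresh YPD growth medium. Doses: single dose. Incubation: static 4 h at 37 °C with compound, 1 h detection. Measured by: luminescent adenylate kinase detection reagent. Read-out: signal increase indicating cell lysis. Benchmarks: Clomiphene.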
DENV2 CPE = inhibitors of DENV2 cytopathic effect, primary screen, cell-based, plate reader, single concentration; DENV2-infected cells, cytopathic effect rescue; 350,000 compounds, 1.7% hits; AID 651640, 2012; CPE inhibition, % at 9.99 µM; in the data active = CPE inhibition above about 20%, passing the limit was not always enough; inconclusive = no clear call, values can overlap the other calls; tested in BHK-21 cells;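 also: 0% = median of neutral control wells and 100% = median of positive control wells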
Yeast UUG start = modulators of start codon recognition fidelity in yeast; S. cerevisiae UUG-firefly luciferase reporter, luminescence/redox ratio; activity score, % at 18.7 µM; hit rate 0.13% among 350,000; AID 602363;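 active = replicate mean at a twofold rise or more, about +100% in these data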;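 note: firefly luciferase made from a UUG start codon reports start codon fidelity; reporter light over untreated wells divided by growth signal over untreated wells; some hits fall short of that in this replicate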
Active calls of the source: *; ? = inconclusive; · = not tested or not shown. This is a sample that favours compounds with a hit; in the whole collection about 1.8% have one here.

1: C[C@H]1CN([C@@H](C)CO)C(=O)c2cc(NC(=O)c3ccncc3)ccc2O[C@@H]1CN(C)C(=O)NC1CCCCC1
2: C[C@@H]1CCCCO[C@H](CN(C)C(=O)NC2CCCCC2)[C@H](C)CN([C@@H](C)CO)C(=O)c2cc(NC(=O)Nc3ccc(C(F)(F)F)cc3)ccc2O1
3: C[C@H]1CN([C@@H](C)CO)C(=O)c2ccccc2-c2ccccc2CO[C@@H]1CN(C)C(=O)Nc1ccccc1
4: COCC(=O)Nc1ccc2c(c1)C(=O)N(C)C[C@@H](OC)[C@@H](C)CN(Cc1ccccn1)[C@@H](C)CO2
5: CC(C)c1cn(CC[C@@H]2CC[C@H](NC(=O)C3CCCC3)[C@H](CO)O2)nn1
6: CC1Cc2ccccc2N1S(=O)(=O)c1cnc(Cl)c(Br)c1 (stereo not given)
7: Cc1ccc(OCCCCNC(C)c2ccccc2)c(C)c1 (stereo not given)
8: C[C@@H]1CN([C@H](C)CO)S(=O)(=O)c2ccc(C3=CCCC3)cc2O[C@@H]1CN(C)C(=O)c1ccncc1

assay / entry	1	2	3	4	5	6	7	8
E-selectin induc	·	3.3	-0.1	-0.1	-0.5	1.9	·	0.3
Cneo AK release	-2.2	2.3	2.5	1.2	0.2	2.2	1.9	0.9
DENV2 CPE	4.8	64.5*	3.8	-7.5	-13.2	64.8*	28.6*	-2.0
Yeast UUG start	-13.1	17.8	5.1	·	9.2	-9.8	-12.5	-9.8

9: C[C@H](CO)N1C[C@H](C)[C@H](CN(C)C(=O)c2ccccc2)Oc2cc(C3=CCCCC3)ccc2S1(=O)=O
10: C[C@@H]1CN([C@H](C)CO)S(=O)(=O)c2ccc(C3=CCCC3)cc2O[C@H]1CN(C)C(=O)c1ccncc1
11: C[C@H]1CN([C@@H](C)CO)S(=O)(=O)c2ccc(C3=CCCC3)cc2O[C@@H]1CN(C)C(=O)Cc1ccncc1
12: O=C(Nc1ccc2c(c1)OCO2)N[C@H]1CC[C@@H](CCNC(=O)C2CCCC2)O[C@@H]1CO
13: CC(=O)N1[C@H](CO)[C@H](c2ccccc2)C12CN(C(=O)c1ccccc1)C2
14: Cn1c(=O)c2nc(Cl)c(-c3ccccc3)nc2n(C)c1=O
15: CN(C)C(=O)C[C@@H]1CC[C@H]2[C@@H](COc3ccc(NC(=O)c4cnccn4)cc3C(=O)N2C)O1
16: COc1ccc(OC)c(C2C(C(=O)Nc3ccccc3OC)=C(C)Nc3nc(CCCO)nn32)c1 (stereo not given)

assay / entry	9	10	11	12	13	14	15	16
E-selectin induc	0.3	-0.2	0.1	0.0	0.0	·	0.1	0.0
Cneo AK release	54.2	3.3	-3.0	-3.8	·	·	-0.5	0.9
DENV2 CPE	92.7*	44.8*	30.8*	-2.3	-4.4	54.6*	17.6	8.4
Yeast UUG start	14.5	-15.1	6.8	-4.7	·	·	-9.3	-0.9

Next part; it opens with the 2 that closed the last part.
15: CN(C)C(=O)C[C@@H]1CC[C@H]2[C@@H](COc3ccc(NC(=O)c4cnccn4)cc3C(=O)N2C)O1
16: COc1ccc(OC)c(C2C(C(=O)Nc3ccccc3OC)=C(C)Nc3nc(CCCO)nn32)c1 (stereo not given)
17: COc1ccc(C2C(C(=O)Nc3ccc(F)cc3)=C(C)Nc3nc(CCCO)nn32)cc1 (stereo not given)
18: CCOc1ccccc1C1C(C(=O)Nc2ccccc2OC)=C(C)Nc2nc(CCCO)nn21 (stereo not given)
19: CCOc1ccc(C2C(C(=O)Nc3ccc(F)cc3)=C(C)Nc3nc(CCCO)nn32)cc1 (stereo not given)
20: C[C@@H]1CN([C@@H](C)CO)C(=O)c2cc(N(C)C)ccc2O[C@@H]1CN(C)C(=O)Nc1ccc(C(F)(F)F)cc1
21: C[C@@H]1CN([C@H](C)CO)C(=O)c2cc(NC(=O)Nc3ccccc3)ccc2O[C@@H]1CN(C)C(=O)Nc1ccc(C(F)(F)F)cc1
22: C[C@H]1CN([C@@H](C)CO)C(=O)c2cc(NC(=O)Nc3ccccc3)ccc2O[C@@H]1CN(C)C(=O)Nc1ccc(C(F)(F)F)cc1
23: C[C@H](CO)N1C[C@H](C)[C@H](CN(C)C(=O)Nc2ccc3c(c2)OCO3)Oc2ccc(NC(=O)Nc3cccc4ccccc34)cc2C1=O
24: C[C@H]1CN([C@@H](C)CO)C(=O)c2cc(NC(=O)CCC(F)(F)F)ccc2O[C@H]1CN(C)C(=O)Nc1cccc2ccccc12

assay / entry	15	16	17	18	19	20	21	22	23	24
E-selectin induc	0.1	0.0	·	-0.9	0.0	0.9	0.4	40.4*	0.5	-7.0
Cneo AK release	-0.5	0.9	-1.4	-0.2	-1.9	116.8*	-1.8	-0.2	-1.7	55.1
DENV2 CPE	17.6	8.4	28.5*	57.3*	1.3	?	-1.1	21.8*	12.8	26.1*
Yeast UUG start	-9.3	-0.9	-14.5	-0.2	-12.6	32.8	-4.3	8.9	-15.5	15.7

Some of these compounds in order of the DENV2 CPE value, low to high:
nr | molecule | DENV2 CPE
19 | CCOc1ccc(C2C(C(=O)Nc3ccc(F)cc3)=C(C)Nc3nc(CCCO)nn32)cc1 (stereo not given) | 1.3
23 | C[C@H](CO)N1C[C@H](C)[C@H](CN(C)C(=O)Nc2ccc3c(c2)OCO3)Oc2ccc(NC(=O)Nc3cccc4ccccc34)cc2C1=O | 12.8
22 | C[C@H]1CN([C@@H](C)CO)C(=O)c2cc(NC(=O)Nc3ccccc3)ccc2O[C@@H]1CN(C)C(=O)Nc1ccc(C(F)(F)F)cc1 | 21.8*

Following part.
25: C[C@H]1CN([C@@H](C)CO)C(=O)c2cc(NC(=O)Nc3cccc4ccccc34)ccc2O[C@@H]1CN(C)C(=O)Nc1ccc2c(c1)OCO2
26: C[C@@H]1CN([C@@H](C)CO)C(=O)c2cc(NC(=O)CCC(F)(F)F)ccc2O[C@@H]1CN(C)C(=O)Nc1cccc2ccccc12
27: C[C@@H]1CCCCO[C@@H](CN(C)Cc2ccncc2)[C@@H](C)CN([C@H](C)CO)C(=O)c2cc(N(C)C)ccc2O1
28: C[C@@H]1CN([C@H](C)CO)C(=O)c2cc(NC(=O)Nc3cccc4ccccc34)ccc2O[C@H]1CN(C)C(=O)Nc1ccc(C(F)(F)F)cc1
29: C[C@H](CO)N1C[C@H](C)[C@H](CN(C)C(=O)Nc2cccc3ccccc23)Oc2ccc(NC(=O)Nc3ccccc3)cc2C1=O
30: C[C@@H]1CN([C@@H](C)CO)C(=O)c2cc(N(C)C)ccc2O[C@H]1CN(C)C(=O)Nc1cccc2ccccc12
31: C[C@@H]1CN([C@@H](C)CO)C(=O)c2cc(NC(=O)Nc3ccccc3)ccc2O[C@@H]1CN(C)C(=O)Nc1ccc(C(F)(F)F)cc1
32: C[C@@H]1CN([C@@H](C)CO)C(=O)c2cc(N(C)C)ccc2O[C@@H]1CN(C)C(=O)Nc1cccc2ccccc12

assay / entry	25	26	27	28	29	30	31	32
E-selectin induc	8.7	-6.3	-0.1	-1.0	-0.1	-8.1	50.6*	39.1*
Cneo AK release	-2.1	-3.9	·	103.1*	101.3*	0.7	1.0	-1.0
DENV2 CPE	22.6*	17.1	·	-6.3	-14.1	0.0	-4.0	-2.5
Yeast UUG start	-20.3	5.6	·	2.3	11.6	-1.8	-3.2	1.8

33: Cc1ccc(/C=C2\SC(=S)N(NS(=O)(=O)c3ccc(C)cc3)C2=O)cc1
34: C[C@H]1CN([C@@H](C)CO)C(=O)c2cc(NS(=O)(=O)c3cccs3)ccc2O[C@@H]1CN(C)Cc1ccc(C(=O)Nc2ccccc2N)cc1
35: C[C@@H]1CN([C@H](C)CO)C(=O)Cc2cc(NS(=O)(=O)c3cccs3)ccc2O[C@H]1CN(C)Cc1ccc(C(=O)Nc2ccccc2N)cc1
36: C[C@H](CO)N1C[C@H](C)[C@@H](CN(C)Cc2ccc(C(=O)Nc3ccccc3N)cc2)Oc2ccc(NS(=O)(=O)c3cccs3)cc2C1=O
37: C[C@H](CO)N1C[C@H](C)[C@H](CN(C)Cc2ccc(C(=O)Nc3ccccc3N)cc2)Oc2ccc(NS(=O)(=O)c3cccs3)cc2CC1=O
38: CN1C(=O)c2cccc3c(S(=O)(=O)N(C)C)ccc1c23
39: C[C@H]1CCCCO[C@@H](CN(C)C(=O)Nc2ccc(C(F)(F)F)cc2)[C@@H](C)CN([C@@H](C)CO)C(=O)c2cc(N(C)C)ccc2O1

assay / entry	33	34	35	36	37	38	39
E-selectin induc	-0.1	0.3	-2.4	-2.9	58.8*	0.1	-0.2
Cneo AK release	120.6*	46.1	·	-0.3	-2.8	118.0*	47.0
DENV2 CPE	11.6	-2.1	38.9*	-4.5	-11.2	13.9	·
Yeast UUG start	-4.5	14.0	·	14.5	-2.5	-16.7	-4.7
